Data as given in PubChem BioAssay AID435003 (Sanford-Burnham Center for Chemical Genomics, 2010).
Only a part is listed here, and it is no random draw. The source made the active and inactive calls. No stated cut-off is given here; in the data, active means inhibition above about 50%; inactive means the rest.

Experiment: inhibitors of induced NF-kB luciferase reporter, primary screen, TCR NF-kB activation inhibitor project, cell-based, luminescence, uHTS (AID 435003)
Conditions: Jurkat, PMA/ionomycin-induced NF-kB luciferase reporter, at 4 µM, active compounds read high

SMILES | inhibition
CC1=C2N=C(C=C3N=C(C(C)=C4[N-][C@@](C)([C@@H]5N=C1[C@](C)(CCC(=O)NC[C@@H](C)OP(=O)([O-])O[C@H]1[C@@H](O)[C@@H](n6cnc7cc(C)c(C)cc76)O[C@@H]1CO)[C@H]5CC(N)=O)[C@@](C)(CC(N)=O)[C@@H]4CCC(N)=O)[C@@](C)(CC(N)=O)[C@@H]3CCC(N)=O)C(C)(C)[C@@H]2CCC(N)=O.[C-]#N.[Co+3] | inactive: -0.82%
O=[N+]([O-])c1cc([N+](=O)[O-])c(Nc2nnnn2CCO)c([N+](=O)[O-])c1 | inactive: -9.67%
CCCOc1ccc(NP(C)(=O)Oc2ccc(Cl)cc2)cc1 (centres undefined) | inactive: 5.68%
CP(=O)(Nc1ccc(SC(F)(F)F)cc1)Oc1ccccc1 (centres undefined) | inactive: 2.83%
COc1ccccc1OP(C)(=O)Nc1c(C)cccc1C (centres undefined) | inactive: 6.13%
CN1CCCCC1COC(=O)C1(O)c2ccccc2CCc2ccccc21 (centres undefined) | inactive: 8.5%
COc1ccccc1OP(C)(=O)Nc1ccccc1 (centres undefined) | inactive: 4.16%
CP(=O)(Nc1ccccc1Br)Oc1ccccc1 (centres undefined) | inactive: 10.3%
CP(=S)(Nn1cnnc1)Oc1ccccc1 (centres undefined) | inactive: 4.55%
Cc1cc(C)cc(OP(C)(=O)Nc2ccc(SC(F)(F)F)cc2)c1 (centres undefined) | inactive: 9.42%
CP(=O)(NC(=O)Nc1ccccc1)Oc1ccccc1 (centres undefined) | inactive: -7.67%
CCc1ccc(OP(C)(=O)N2CCN(c3ccc([N+](=O)[O-])cc3)CC2)cc1 (centres undefined) | inactive: -0.427%
CP(=O)(Oc1ccccc1)OC(c1ccccc1)C(F)(F)F (centres undefined) | inactive: -4.91%
Cc1cccc(C)c1OP(C)(=O)Nc1ccc(SC(F)(F)F)cc1 (centres undefined) | inactive: 3.29%
CP(=O)(Nc1ccc(SC(F)(F)F)cc1)Oc1ccc(Cl)cc1 (centres undefined) | inactive: 6.21%
CP(=O)(Nc1ccccn1)Oc1ccc(Cl)cc1 (centres undefined) | inactive: -1.26%
CCOP(C)(=S)SCC(=O)NC(C)C(=O)O (centres undefined) | inactive: 7.93%
CCOC(=O)c1ccc(NP(C)(=O)Oc2ccc(OC)cc2)cc1 (centres undefined) | inactive: -8.46%
O=[N+]([O-])c1cc([N+](=O)[O-])c(O)c([N+](=O)[O-])c1.c1ccc(Oc2ccncc2)cc1 | inactive: -10.2%
CCN(CC)CCCOC(=O)C(O)(c1ccccc1)c1ccccc1 | inactive: 0.514%
Cc1cccc(C)c1OP(C)(N)=O (centres undefined) | inactive: -10.9%
CC(C)(C)c1ccc(OP(C)(=O)Nc2ccc(SC(F)(F)F)cc2)cc1 (centres undefined) | inactive: 0.963%
O=[N+]([O-])c1cc([N+](=O)[O-])c(Nc2cccnc2)c([N+](=O)[O-])c1 | inactive: -20.1%
COc1ccc(OP(C)(=O)Nc2cccc(F)c2)cc1 (centres undefined) | inactive: -5.07%
COc1ccccc1OP(C)(=O)Nc1cc(Cl)ccc1C (centres undefined) | inactive: -4.28%
Cc1cc(C)cc(OP(C)(N)=O)c1 (centres undefined) | inactive: -0.672%
CCOC(=O)c1ccc(NP(C)(=O)Oc2ccccc2)cc1 (centres undefined) | inactive: 12%
Cc1ccc(NP(C)(=O)Oc2ccccc2)c(C)c1 (centres undefined) | inactive: 7.38%
COc1ccccc1OP(C)(=O)Nc1ccc(C)cc1 (centres undefined) | inactive: -12.7%
